Experimental data reported in patent publication US10028999B2, “PAR-1 based therapeutic conjugates and uses thereof” (TEL HASHOMER MEDICAL RESEARCH INFRASTRUCTURE AND SERVICES …, priority 2014, dated 2018).

Columns and labels:
CNS-1 glioma cells [1] = settings: CNS-1 cells, four hours after treatment
Experimental: The thrombin-like activity of CNS-1 cells was initially measured in control cells and in cells treated with (i) the short peptide conjugate (tosyl-DPR-CK, corresponding to a conjugate that includes the peptide termed 3AA) or (ii) the long conjugate (tosyl-NATLDPR-CK, corresponding to a conjugate that includes the peptide termed 7AA (SEQ ID No. 4)) at high ([…]) and low (100 nM) concentrations (FIG. 16).

CNS-1 glioma cells [2] = experiment: Proliferation (XTT) of CNS-1 glioma cells; assay type: cell-based, rat; settings: CNS-1 cells
Experimental: Several peptide moieties (Table 1) according to the present invention were synthesized. Proliferation was measured, by means of XTT, in C6 and CNS-1 glioma cell-lines (FIGS. 8A and 8B, respectively). In C6 cells, proliferation was measured before (black bar) and after cells were treated with the PAR-1 antagonist SCH79797 at various doses ranging from 10 nM to 10 μM (grey bars; FIG. 8A).
In another set of experiments, CNS-1 glioma cell-line was treated with increased doses of TLCK (125 nM to 14 mM), for 48 hours (FIG. 9; grey bars). Proliferation was measured by means of XTT in comparison to non-treated cells (control; black bar).
Initially, CNS-1 glioma cells were treated with increased concentrations of two peptide conjugates: a short conjugate of the formula tosyl-DPR-CK (comprising 3 amino acids, 3AA) or a long conjugate of the formula tosyl-NATLDPR-CK (comprising 7 amino acids, 7AA; SEQ ID NO: 4) in concentrations of 100 pM, 1 nM and 10 nM, for 48 hours (FIG. 10). FIG. 10 provides the results of an XTT assay used for assessing cell proliferation.
The effect of the peptide conjugate alone, or in combination with PAR-1 antagonist, SCH79797, on cell proliferation was determined in comparison to untreated cells or cells treated with PAR-1 antagonist (FIG. 13).

Compound: N=C(N)c1ccc(CC(NC(=O)CNS(=O)(=O)c2ccc3ccccc3c2)C(=O)N2CCCCC2)cc1 (racemic) [NAPAP, Na-(2-naphthyl-sulphonyl-glycyl)-DL-p-amidinophenylalanyl-piperidine]
- thrombin-like activity (CNS-1 glioma cells [1]): inhibited
- proliferation, administered alone (CNS-1 glioma cells [2]; XTT, 1 μM): did not inhibit proliferation
- proliferation-inhibition, combined treatment with the PAR-1 antagonist (CNS-1 glioma cells [2]; compared with PAR-1 antagonist (1 μM) alone): significantly increased said inhibitory effect
